The values that follow are results of earlier work, collected in patent US12194158B2, “Oromucosal nanofiber carriers for therapeutic treatment” (Instar Technologies A.S., priority 2016, dated 2025).

For the data set the following is noted: in water at 25° C.; cited from earlier work.

As to Human serum albumin [HSA], the “isoelectric point (pI)” value was roughly 4.7.
